This note sets out measurements from US9371322B2, “Bicyclic aza-amides for treatment of psychiatric disorders” (MAX-PLANCK-GESELLSCHAFT ZUR FÖRDERUNG DER WISSENSCHAFTEN …, priority 2012, dated 2016).

Protein sequences, listed by entry. Tags and fused reporters are not part of them. Residues count along the entry.
UniProt Q02790, 50-138 limits assumed: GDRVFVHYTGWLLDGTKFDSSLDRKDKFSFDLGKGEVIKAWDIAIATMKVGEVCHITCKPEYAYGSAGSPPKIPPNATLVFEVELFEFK
UniProt Q13451, 42-130 limits assumed: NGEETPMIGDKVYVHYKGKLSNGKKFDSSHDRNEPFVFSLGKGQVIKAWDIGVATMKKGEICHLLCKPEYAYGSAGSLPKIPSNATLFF
UniProt P62942, whole entry: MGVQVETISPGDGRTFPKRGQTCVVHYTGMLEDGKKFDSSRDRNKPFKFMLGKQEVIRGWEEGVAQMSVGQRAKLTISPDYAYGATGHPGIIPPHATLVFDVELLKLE

One test addresses FKBP52 (Homo sapiens, UniProt Q02790). Put plainly: Competitive fluorescence polarization assay, binding to FKBP52. The conditions noted are these: read-out: FKBP52 Ki, FKBP52FK1, fluorescent tracer 20 nM final, 30 min room temperature.
The target of the next test is FKBP51 (Homo sapiens, UniProt Q13451). The test can be described thus: Competitive fluorescence polarization assay, binding to FKBP51. Conditions: read-out: FKBP51 Ki, FKBP51FK1, fluorescent tracer 20 nM final, 30 min room temperature.
The target of a further test is FKBP12 (Homo sapiens, UniProt P62942). Put plainly: Competitive fluorescence polarization assay, binding to FKBP12.

On to `CCC(C)(C)C(=O)C(=O)N1C2CCCC1C(=O)N(CCOc1ccc(OC)c(OC)c1)C2` (stereo not shown), for which the Ki on FKBP52 is more than 100 µM; at FKBP51, more than 100 µM; at FKBP12 (read-out: FKBP12 Ki, fluorescence polarization, fluorescent tracer 20 nM final, 30 min room temperature) it was 3.5 µM. The “FKBP12 ligand efficiency (LE)” value at FKBP12 (LE=(ΔG)/N, ΔG=−RTlnKi, RT=0.6, N non-hydrogen atoms) is given as 0.24.
